Assay results from patent US10759809B2 (priority 2017, dated 2020).

test system: Kunming mice; test: Determination of analgesic activity by hot plate assay of mice; format: in vivo; settings: male Kunming mice, hot plate 55° C., by gavage, 1 hour after administration, bliss method

For [2H]C([2H])([2H])Oc1ccc2c3c1OC1[C@@]4(OC)CC[C@@]5(C[C@@H]4[C@](C)(O)C(C)(C)C)[C@@H](C2)N(CC2CC2)CC[C@]315 (stereo partly shown), which ED50 is on record?
Its ED50 is 19.28 ± 17.00 mg/kg.

How did the ED50 turn out when [2H]C([2H])([2H])Oc1ccc2c3c1O[C@H]1[C@@]4(OC)CC[C@@]5(C[C@@H]4[C@](C)(O)C(C)(C)CC)[C@@H](C2)N(C([2H])([2H])C2CC2)CC[C@]315 was run?
Its ED50 is 4.45 ± 4.02 mg/kg.

With [2H]C([2H])([2H])Oc1ccc2c3c1O[C@H]1[C@@]4(OC)CC[C@@]5(C[C@@H]4[C@](C)(O)C(C)(C)CC)[C@@H](C2)N(CC2CC2)CC[C@]315 as the molecule, how does the ED50 read?
Its ED50 is 4.76 ± 3.78 mg/kg.

With [2H]C([2H])(C1CC1)N1CC[C@]23c4c5ccc(OC)c4O[C@H]2[C@@]2(OC)CC[C@@]3(C[C@@H]2[C@](C)(O)C(C)(C)C)[C@H]1C5 as the molecule, how does the ED50 read?
Its ED50 is 4.61 ± 2.03 mg/kg.

[2H]c1c([2H])c2c3c(c1O)O[C@H]1[C@@]4(OC)CC[C@@]5(C[C@@H]4[C@](C)(O)C(C)(C)CC)[C@@H](C2)N(CC2CC2)CC[C@]315 was tested. Which ED50 did it give?
The ED50 was 1.96 ± 2.01 mg/kg.

How did the ED50 turn out when CCC(C)(C)[C@@](C)(O)[C@H]1C[C@@]23CC[C@]1(OC)[C@@H]1Oc4c(O)ccc5c4[C@@]12CCN(CC1CC1)[C@@H]3C5 was run?
Its ED50 is 2.60 ± 3.77 mg/kg.

How did the ED50 turn out when [2H]C([2H])([2H])Oc1ccc2c3c1OC1[C@@]4(OC)CC[C@@]5(C[C@@H]4[C@](C)(O)C(C)(C)C)[C@@H](C2)N(C([2H])([2H])C2CC2)CC[C@]315 (stereo partly shown) was run?
Its ED50 is 21.10 ± 2.87 mg/kg.
